“Also recorded” adds a separate entry of the source.
System: allo-lymphocytes
Test: Recovery of proliferation in allo-MLR with PSI-treated DC by IL-2 or anti CD28
Type: cell-based, human
Settings: IL-2 2 ng/ml or anti CD28 10 μg/ml added at plating, day 6
Protocol: FIG. 4. Lack of recovery of proliferation response in allo-MLR. Mature DC was treated with vehicle (A) or PSI (1 μM) (B) for 4 h. After wash graded number of each treated DC and 10^5 cells of allo-lymphocytes were plated on a 96 well plate with vehicle (∘,●), 2 ng/ml. of IL-2 (□,▪) or 10 µg/ml. of anti CD28 Ab (Δ, ▴). Proliferation was determined at day 6 using ^3H-TdR uptake assay. (Each point represents mean+/−SEM from three separate experiments).
There are two broad possibilities as to the mechanism of the low proliferative response of T cells to PSI-DC. One is that these DC are not stimulatory, and the T cells are not responding for that reason. The second is that the T. cells have been actively ‘switched off’ by processes of tolerance or active immune regulation. To begin to discriminate between these possibilities, we attempted to stimulate the T cells with IL-2, or anti CD28 at concentrations (2-ng/ml. IL-2 or 10 μg/ml. anti CD28).
The IL-2 or anti CD28 was added at the same time when T cells and DC were plated.

## IL-2: cytokine added at 2 ng/ml to the MLR
  restoring proliferation of T cells in MLR with PSI-treated DC: very slight effect at restoring proliferation; also recorded: failed to stimulate

— patent US7915009B2, “Activation and inhibition of the immune system” (The Mathilda and Terence Kennedy Institute of Rheumatology …, priority 1999, dated 2011)
